Rango-impB inh: prevents formation of the Rango-importin beta complex | Q14974 | Rango CFP/YFP FRET sensor + importin beta, 45 min | Potency, µM (highest dose often 92.2 µM), inactives show at the top dose inhibition of complex formation | 340,000 tested, 0.031% active | AID 540263;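 further: 0% = DMSO wells and 100% = buffer wells lacking importin beta; nearly all actives have a fitted effect of over 15% in size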
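FRET biosensor (snurportin 1 IBB flanked by EYFP and cerulean), 50 nM, with compound 5 min, then 0.125 microM importin beta in PBS, 1 mM DTT, 0.02% Tween-20, 0.1% BSA. CFP/YFP ratio read after 45 min at room temperature; pre-read flags interference.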
S-ASM inh: blocks human secretory acid sphingomyelinase. P17405. placental ASM, HMU-PC fluorogenic substrate, 60 min. Potency, µM (highest dose often 57.5 µM), for the others: top-dose activity change, negative = inhibition, most hits filed as inhibitors. 340,000 tested, 0.006% active. AID 504937; active means well fitted inhibition curve with a large enough effect; inconclusive means small, poorly fitted or top-dose-only effect; inactive means no such curve, though single readings can be large or run the other way
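Fluorogenic HMU-PC substrate (9 uM final) is turned over by placental ASM in 60 min at 37 C after a 10 min compound preincubation. Reaction ended by alkaline stop (pH 10), with fluorescence read at 386/447 nm.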
gsp agonist: gsp mutant agonism; gsp mutant cells, cAMP HTRF, 30 min; Potency, µM (doses to about 76.9 µM), for inactives: at the top dose activation (cAMP increase), usual class: activators; 340,000 tested, 0.13% active; active means well fitted activation curve with a large enough effect; inconclusive means small, poorly fitted or top-dose-only effect, or another doubt; inactive means no such curve, though single readings can be large or run the other way; cell line not stated here;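 further: phosphodiesterase inhibitor Ro 20-1724 added with compounds to block cAMP breakdown; nearly all actives have a fitted effect of over 60% in size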
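Cells stably selected in G418 were plated at 2000/well, grown 16-24 hr, then given compounds in DMSO with the PDE inhibitor […] (300 uM solution added) for 30 min at 37C; cAMP was read by HTRF.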
gsp antagonist: antagonists of gsp mutant (McCune-Albright syndrome) | gsp-mutant cells, cAMP HTRF, 30 min | Potency, µM (highest dose often 76.9 µM), without a hit: top-dose activity change, negative = inhibition, most hits filed as inhibitors | 340,000 tested, 0.4% active | AID 624288; calls by dose curve; cell line not stated here;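 further: intracellular cAMP measured with PDE inhibitor Ro 20-1724 present during compound exposure; on the % scale 0 is the no-effect control and ±100 the full control effect; nearly all actives have a fitted effect of over 65% in size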
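Cells, 2000/well, grown 16–24 h in DMEM 10% FBS with 0.5 mg/ml G418, then compounds plus […] (300 uM addition stock), 30 min at 37C. cAMP read by HTRF (cAMP-d2 and anti-cAMP antibody-K in lysis buffer) after 30 min RT.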
Rango release inh: inhibition of RanGTP-driven Rango-importin beta dissociation; O95149+P62826; 340,000 tested, 0.071% active; Potency, µM (series often up to 46.1 µM), for the others: top-dose activity change, negative = inhibition; Biochemical FRET Rango-importin beta, RanGTP-induced dissociation; AID 540253; further: % of control where 0% means no effect; nearly all actives have a fitted effect of over 45% in size
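Rango/importin beta premix (0.1/0.25 uM final), PBS + 1 mM DTT + 0.02% Tween-20 + 0.1% BSA; cpd 5 min RT; FRET pre-read; + RanGTP-RCC1 (0.6 uM Ran, 2 mM GTP, 0.2 uM RCC1); 45 min RT; FRET post-read, ex 430, em 486/530 nm.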
The depositor's hits bear a star; i = inactive; ? = inconclusive; nt = no result; [ ] = another dose, or the depositor's remark. Hits are enriched below; roughly 0.67% of the tested compounds scored in any of these assays. Unless noted, the call rests on the fitted dose curve. Potency means the concentration at half of the fitted maximal effect.

gsp agonist | gsp antagonist | Rango release inh | Rango-impB inh | S-ASM inh | mol
-29% | 35µM* | 17% | 0% | -28% | CC(=O)Nc1ccc(N=C(C2=C(O)c3ccccc3C2=O)c2ccccc2)cc1
9% | -2% | 1% | 1% | -3% | Cc1ccc(C)c(C(=O)CCC(=O)OCn2nnc3ccccc3c2=O)c1
17% | 28µM* | 0% | 1% | -4% | COc1ccc(NC(=O)c2cc(-c3ccccc3)nc3c2cnn3C(C)C)cc1
1% | -5% | 1% | 0% | -5% | CC(=O)Oc1ccc2ccc3ccc(C(C)=O)cc3c2c1
11% | 9% | -2% | 65µM* | 4% | O=C(NCc1ccc(F)cc1)c1cccc(S(=O)(=O)N2CCOCC2)c1
0% | 1% | -14% | -3% | 8% | O=C(NCc1ccc(F)cc1)c1cccc(S(=O)(=O)N2CCCC2)c1
-11%[15.4 µM] | 32µM* | 3% | 2% | 6% | O=C(Nc1ccccc1C(=O)Nc1nnc(C(F)(F)F)s1)c1ccccc1Cl
? | 7% | 0% | -1% | 7% | NC(=O)c1ccccc1NC(=O)c1ccccc1Cl
nt | -12% | 4% | 1% | -5% | CCCCCC(=O)Nc1cccc(C2=NOC3(C2)C[C@@H](C(N)=O)N(C(=O)c2ccc(Cl)cc2)C3)c1 (stereo partly drawn)
40µM* | 13% | -8% | ? | -1% | O=C(Nc1ccccn1)c1cc(-c2cccnc2)nc2ccc(Br)cc12
-6%[15.4 µM] | 10µM* | 10% | 0% | 9% | Cc1cc(NC(=O)CSc2nc3ccccc3n2CCC#N)no1
44% | 38% | 18% | 6% | 2% | CCCCn1c(SCC(=O)Nc2cc(C)on2)nc2ccccc2c1=O
20µM* | -11% | 10% | -1% | -17% | Cc1nonc1NC(=O)CSc1nc(CCC2CCCC2)nc2ccccc12
10% | 8% | 7% | -1% | -3% | Cc1cc(NC(=O)CSc2nc(CCC3CCCC3)nc3ccccc23)no1
25µM* | 22% | ? | -4% | 4% | Cc1cc(NC(=O)CSc2nc(C(C)(C)C)nc3ccccc23)no1
21% | 0% | 12% | 0% | 0% | CC(=O)c1cc2c(cc1NC(=O)CN1CCCCC1C)OCO2 (stereo not drawn)
-7% | 5% | -2% | 1% | -17% | CCC1=NN(C(=O)c2cccc([N+](=O)[O-])c2)C(O)(c2ccc(C)cc2)C1 (stereo not drawn)
-37% | -15% | -11% | -2% | -1% | Cc1ccc(C)c(OCc2nc3ccc(S(=O)(=O)Nc4c(C)n(C)n(-c5ccccc5)c4=O)cc3[nH]2)c1
11% | -32% | -14% | -2% | 1% | Cc1nn(Cc2ccc(Cl)cc2)c(C)c1NC(=O)c1cc(-c2ccco2)on1
5% | 32µM* | -17% | -4% | -6% | Cc1nn(Cc2ccc(Cl)c(Cl)c2)c(C)c1NC(=O)c1cc(-c2ccco2)on1
? | 16% | 7% | 0% | 0% | Cc1noc(NS(=O)(=O)c2ccc(N/C=C/C(=O)c3ccncc3)cc2)c1C
20µM* | 22% | -4% | ? | -3% | Cc1noc(NS(=O)(=O)c2ccc(N/C=C\C(=O)c3ccncc3)cc2)c1C
? | 50µM* | 18% | -2% | -2% | O=C(Nc1nnc(S(=O)(=O)N2CCCC2)s1)c1cccc([N+](=O)[O-])c1
1% | 28µM* | -1% | 0% | ? | Cc1cc(C)c(O)c(-c2cc(C(=O)Nc3ccc(S(=O)(=O)N4CCOCC4)cc3)[nH]n2)c1
2%[15.4 µM] | 5% | 3% | 4% | 6% | N#CC(CC(=O)c1ccc(F)cc1)c1ccc2c(c1)OCO2 (stereo not drawn)
-1% | 28µM* | 0% | -1% | -1% | CCOC(=O)c1sc(SCC(=O)Nc2ccc(N(C)C)cc2)nc1N
-7% | 5% | -2% | -1% | -1% | NN(CCO)C(=S)Nc1ccc(Cl)cc1
1% | nt | nt | nt | nt | CCc1nc(N2CCN(C(=O)CCCl)CC2)c2c3c(sc2n1)CCCC3
-2%[15.4 µM] | 25µM* | -8% | 0% | -7% | CCNC(=S)N1CCN(c2nc(CC)nc3sc4c(c23)CCCC4)CC1
-27% | -2% | 0.0082µM* | ? | 5% | COc1ccc(-c2ccc(-c3noc(C(C)C)n3)c(OC)n2)cc1
-7%[15.4 µM] | 28µM* | -1% | -1% | -21% | COc1ccc2[nH]c3c(NCCC4=CCCCC4)ncnc3c2c1
? | 3% | -2% | 1% | 6% | Cc1ccc(-n2c(=O)[nH]c3c(oc4ccccc43)c2=O)cc1
11µM* | 1% | -9% | 4% | -3% | COc1ccc(-n2c(=S)[nH]c3c(oc4ccccc43)c2=O)cc1
-3%[15.4 µM] | -5% | -13% | -6% | 19% | Nc1nc(N)c2[nH]c(-c3ccccc3)nc2n1
0%[15.4 µM] | 25µM* | -24% | ? | i | COC(=O)c1ccccc1-c1ccc(/C=N/Nc2nc(N3CCCC3)nc(N3CCCC3)n2)o1
3%[15.4 µM] | -19% | -5% | 1% | -1% | Cc1ccc(/C=N/Nc2nc(N3CCCCC3)nc(N3CCCCC3)n2)o1
4% | ? | -15% | 1% | 12% | CN1c2ccccc2C(O)=C(C(=S)Nc2ccccc2)S1(=O)=O
9%[15.4 µM] | 40µM* | 2% | -1% | 16% | CN1c2ccccc2C(O)=C(C(=S)Nc2ccc(F)c(Cl)c2)S1(=O)=O
nt | 28µM* | -11% | -1% | -3% | Cc1cccc([C@@H]2[C@@H]3C(=O)N(Cc4ccccc4)C(=O)[C@@H]3[C@]3(C)C(=O)N(c4cccc(F)c4)C(=O)N23)c1
-14% | 35µM* | 2% | 0% | -3% | COc1ccc(Cl)cc1C(=O)Nc1ccc(NC(C)=O)cc1
7%[15.4 µM] | 35µM* | 1% | 6% | -7% | CC(=O)Oc1c(I)cc(I)cc1C(=O)Nc1ccc(Cl)cc1
-25% | 2% | 1% | 0% | -2% | Cc1cc(C(=O)Nc2ccc(Cl)cc2)c2ccccc2n1
11% | 18µM* | -19% | 0% | 0% | COC(=O)c1ccc(/C(O)=C(\C#N)c2nc3ccccc3s2)cc1
27% | ? | -10% | 10% | -2% | O=C(NCC1CCCO1)c1sc(=S)n2c1[nH]c(=O)c1ccc(C(=O)N3CCCCC3)cc12 (stereo not drawn)
-37% | 45µM* | -3% | 3% | -1% | O=C(NC1CCCCC1)c1sc(=S)n2c1[nH]c(=O)c1ccccc12
-9%[15.4 µM] | ? | -2% | ? | -6% | O=C(NCCc1ccccc1)c1ccc2c(=O)[nH]c3c(C(=O)NCC4CCCO4)sc(=S)n3c2c1 (stereo not drawn)
19% | 25µM* | -10% | 2% | -9% | CCCCNC(=O)c1sc(=S)n2c1[nH]c(=O)c1ccccc12
22% | 9% | -4% | -1% | -3% | O=C(Cn1cc([N+](=O)[O-])cn1)Nc1ccn(Cc2c(F)c(F)c(F)c(F)c2F)n1

Look-ups from the results shown.
S-ASM inh with CN1c2ccccc2C(O)=C(C(=S)Nc2ccc(F)c(Cl)c2)S1(=O)=O stands at 16%
Rango release inh with O=C(NCCc1ccccc1)c1ccc2c(=O)[nH]c3c(C(=O)NCC4CCCO4)sc(=S)n3c2c1 (stereo not drawn) stands at -2%
Rango release inh with CN1c2ccccc2C(O)=C(C(=S)Nc2ccccc2)S1(=O)=O stands at -15%
Rango-impB inh with O=C(Cn1cc([N+](=O)[O-])cn1)Nc1ccn(Cc2c(F)c(F)c(F)c(F)c2F)n1 stands at -1%
gsp antagonist with COc1ccc2[nH]c3c(NCCC4=CCCCC4)ncnc3c2c1 stands at 28µM*
gsp agonist with Cc1cc(C(=O)Nc2ccc(Cl)cc2)c2ccccc2n1 stands at -25%
S-ASM inh with O=C(NCC1CCCO1)c1sc(=S)n2c1[nH]c(=O)c1ccc(C(=O)N3CCCCC3)cc12 (stereo not drawn) stands at -2%

Single records, from the list above. Order of values: gsp agonist	gsp antagonist	Rango release inh	Rango-impB inh	S-ASM inh
Entry for COC(=O)c1ccccc1-c1ccc(/C=N/Nc2nc(N3CCCC3)nc(N3CCCC3)n2)o1 → 0%[15.4 µM]	25µM*	-24%	?	i
Entry for O=C(NCCc1ccccc1)c1ccc2c(=O)[nH]c3c(C(=O)NCC4CCCO4)sc(=S)n3c2c1 (stereo not drawn) → -9%[15.4 µM]	?	-2%	?	-6%

High-throughput results deposited in PubChem BioAssay by National Center for Advancing Translational Sciences (NCATS).
